Tests used:
female 129S6/SvEv mice [1] = assay: Forced swim test (FST), immobility time, after stress; settings: for Immobility on FST Day 2 vs saline / Depressive-Like Behavior: (R,S)-ketamine 10 mg/kg, (2R,6R)-HNK 0.025 mg/kg; for Depressive-Like Behavior: Stress model Contextual Fear Conditioning, sex F
female 129S6/SvEv mice [2] = assay: Open field (OF); format: in vivo, mouse; settings: (R,S)-ketamine 10 mg/kg, (2R,6R)-HNK 0.025 mg/kg, prophylactic
female 129S6/SvEv mice [3] = assay: Elevated plus maze (EPM); format: in vivo, mouse; settings: (R,S)-ketamine 10 mg/kg, (2R,6R)-HNK 0.025 mg/kg; for Time in the closed arms of the EPM vs saline / Time in the open arms of the EPM vs saline: 1 week before LH training, female mice
Description: The EPM was administered as previously described (58), with the exception that videos were scored using ANY-maze behavioral tracking software (Stoelting Co., Wood Dale, Ill.).
We have previously shown that prophylactic (R,S)-ketamine attenuates helpless behavior in male mice (18). To validate these findings in females, female mice were administered saline, (R,S)-ketamine, or (2R,6R)-HNK one week prior to LH training (FIG. 4A). Two weeks later, mice were tested for escape latency and for depressive- and anxiety-like behaviors in the FST and elevated plus maze (EPM). CFC was again administered following these behavioral assays.

female 129S6/SvEv mice [4] = assay: Forced swim test after 10-day chronic immobilization stress (CIS); format: in vivo, mouse; settings: (R,S)-ketamine 10 mg/kg, (2R,6R)-HNK 0.025 mg/kg; for Immobility in the FST (Day 2) vs saline: 1 week before 10-day CIS, female mice; for Depressive-Like Behavior: Stress model Chronic Immobilization Stress, time interval 1 week, sex F
female 129S6/SvEv mice [5] = assay: Contextual fear conditioning (CFC), 3-shock, freezing in training and context re-exposure; settings: (R,S)-ketamine 10 mg/kg, (2R,6R)-HNK 0.025 mg/kg; for Fear behavior, freezing in CFC training and re-exposure: 1 week before CIS, CFC after CIS and FST; for Freezing during CFC Training vs saline: sham and OVX surgery groups
female 129S6/SvEv mice [6] = assay: Learned helplessness (LH), session length and escape latency; format: in vivo, mouse; settings: (R,S)-ketamine 10 mg/kg, (2R,6R)-HNK 0.025 mg/kg; for Escape latency in the LH assay vs saline / Session length in the LH assay vs saline: 1 week before LH training, female mice; for Depressive-Like Behavior: Stress model Learned Helplessness, time interval 1 week, sex F
[7] = injection one hour prior to FST Day 1, female mice

Compound	Immobility on FST Day 2 vs saline (female 129S6/SvEv mice [1]; [7])	Depressive-Like Behavior (female 129S6/SvEv mice [1]; time interval 1 week)	Distance travelled in the OF vs saline (female 129S6/SvEv mice [2])	Time in the center of the OF vs saline (female 129S6/SvEv mice [2])	Time in the closed arms of the EPM vs saline (female 129S6/SvEv mice [3])	Depressive-Like Behavior (female 129S6/SvEv mice [4])	Fear behavior, freezing in CFC training and re-exposure (female 129S6/SvEv mice [5])	Escape latency in the LH assay vs saline (female 129S6/SvEv mice [6])	Session length in the LH assay vs saline (female 129S6/SvEv mice [6])	Depressive-Like Behavior (female 129S6/SvEv mice [6])	further results
CNC1(c2ccccc2Cl)CCCCC1=O (racemic) [(R,S)-ketamine, (RS)-2-(2-chlorophenyl)-2-(methylamino)cyclohexanone]	immobility was comparable between the groups for the remainder of the session	↓	did not alter distance travelled	did not alter distance travelled or time in the center of the OF	less time in the closed arms	↓	do not affect fear behavior	did not alter session length or escape latency	did not alter session length	↓	Immobility on FST Day 2 vs saline (female 129S6/SvEv mice [1]; sham surgery, 1 week before CFC): reduced immobility compared to saline controls; Immobility on FST Day 2 vs saline (female 129S6/SvEv mice [1]; sham surgery, 1 week before CFC, listed as (R, S)-ketamine): decreased immobility time; Time in the closed arms of the EPM vs saline (female 129S6/SvEv mice [3]; listed as (R, S)-ketamine): spent significantly less time in the closed arms; Time in the open arms of the EPM vs saline (female 129S6/SvEv mice [3]; listed as (R, S)-ketamine): spent more time in the open arms; Anxiety-Like Behavior (female 129S6/SvEv mice [3]; Stress model Learned Helplessness, time interval 1 week, sex F): ↓; Immobility in the FST (Day 2) vs saline (female 129S6/SvEv mice [4]): significantly reduced immobility; Immobility in the FST (Day 2) vs saline (female 129S6/SvEv mice [4]; listed as (R, S)-ketamine): significantly lowered immobility; Freezing during CFC Training vs saline (female 129S6/SvEv mice [5]): comparable freezing levels; Freezing during CFC Training vs saline (female 129S6/SvEv mice [5]; listed as (R, S)-ketamine): neither (R, S)-ketamine nor (2R,6R)-HNK significantly altered freezing
N[C@@]1(c2ccccc2Cl)CCC[C@@H](O)C1=O [(2R,6R)-HNK, (2R,6R)-hydroxynorketamine]	did not affect immobility throughout the FST	↓	did not alter distance travelled	did not alter distance travelled or time in the center of the OF	but not (2R,6R)-HNK	↓	do not affect fear behavior	did not alter session length or escape latency	did not alter session length	↓	Depressive-Like Behavior (female 129S6/SvEv mice [1]; time interval 3 days): ↓; Time in the open arms of the EPM vs saline (female 129S6/SvEv mice [3]): but not (2R,6R)-HNK
N[C@]1(c2ccccc2Cl)CCC[C@H](O)C1=O [(2S,6S)-HNK]	–	–	–	–	–	–	–	–	–	–	Prophylactic efficacy against stress-induced depressive-like behavior (female 129S6/SvEv mice [1]; single injection 1 week before stressor, female mice): but not its enantiomer (2S,6S)-HNK

From patent US11491120B2, “Pharmacological prophylactics against stress-induced affective disorders in females” (The Trustees of Columbia University in the City of New York, priority 2017, dated 2022)
